Measured values reported in patent US8741916B2, “1,3,8-trisubstituted-1,3,8-triaza-spiro[4.5]decan-4-one derivatives as ligands of the ORL-1 receptor” (dated 2014).

By UniProt entry, the sequences of proteins in these tests, tags left out.
UniProt P41146, whole entry: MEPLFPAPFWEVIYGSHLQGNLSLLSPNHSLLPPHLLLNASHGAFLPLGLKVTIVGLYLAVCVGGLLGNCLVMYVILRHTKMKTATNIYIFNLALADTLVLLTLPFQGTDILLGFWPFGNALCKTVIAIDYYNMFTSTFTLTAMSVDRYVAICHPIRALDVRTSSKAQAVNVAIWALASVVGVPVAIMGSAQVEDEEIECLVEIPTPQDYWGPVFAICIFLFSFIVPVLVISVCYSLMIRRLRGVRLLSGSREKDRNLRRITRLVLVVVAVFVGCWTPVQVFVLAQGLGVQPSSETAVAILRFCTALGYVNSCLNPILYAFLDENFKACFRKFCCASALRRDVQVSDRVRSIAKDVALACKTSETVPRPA
UniProt P33535, whole entry: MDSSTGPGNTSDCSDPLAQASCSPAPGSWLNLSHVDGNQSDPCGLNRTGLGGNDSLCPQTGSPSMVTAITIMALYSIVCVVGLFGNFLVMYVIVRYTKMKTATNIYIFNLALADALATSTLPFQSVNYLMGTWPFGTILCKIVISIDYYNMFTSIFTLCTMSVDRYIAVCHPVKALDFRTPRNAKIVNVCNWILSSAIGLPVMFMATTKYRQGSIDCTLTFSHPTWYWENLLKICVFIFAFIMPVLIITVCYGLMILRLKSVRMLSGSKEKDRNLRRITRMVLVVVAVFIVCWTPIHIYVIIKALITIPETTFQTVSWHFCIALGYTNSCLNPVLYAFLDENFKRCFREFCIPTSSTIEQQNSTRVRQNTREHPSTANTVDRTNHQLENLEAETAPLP

Columns and labels:
[1] = target: recombinant human nociceptin receptor (ORL-1) (Homo sapiens, UniProt P41146); test: Nociceptin receptor binding assay ([3H]-nociceptin, HEK293 cell membranes); settings: read-out: ORL1 Ki, mean where tested more than once
Method: The nociceptin receptor binding assay measures the binding of [Leucyl-3,4,5-^3H]-nociceptin (90 Ci/mmol, Perkin Elmer) to the recombinant human nociceptin receptor (ORL-1, GeneBank Accession number X77130) on HEK293 cell membranes (Perkin-Elmer).
The cell membranes were thawed, reconstituted and homogenized 1:20 (v/v) in an assay buffer containing 50 mM HEPES, 1 mM EDTA and 10 mM MgCl2 (pH 7.4). To a 96-well plate containing 50 μL/well of compound, 50 μL/well of membranes were added. Some wells contained 5 μM nociceptin to account for nonspecific binding. The radioligand was added at a 0.4 nM concentration in a volume of 100 μL/well. The mixture was incubated for 2 hours at 25° C. Following the incubation period, the samples were collected onto PEI-presoaked, glass-fiber 96-well filter plates using the Filtermate harvester (Perkin-Elmer). Each plate was washed nine times with ice-cold assay buffer to remove free radioligand. After drying, 30 μL/well of Microscint-20 (Perkin-Elmer) were added. The plates were sealed and counted on a Packard Top Count scintillation counter to determine membrane-bound radioactivity.
For each test compound, the total binding was measured at several concentrations and the IC50 (the concentration at which 50% of the binding is inhibited) was determined from the graphical display of X=logarithm of concentration versus Y=response, using the following calculation:
For some of the test compounds, the Ki was determined by nonlinear curve fitting using the Cheng-Prussoff equation: Ki=(IC50)/(+[radioligand]/Kd)
For the ORL-1 binding, the Kd was 0.2 nM. The [radioligand] was the same as the Kd.
Representative compounds of the present invention were tested according to the procedure as described in Example 28 above, with results as listed in Table 3. (Note that for the compounds that were tested more than once, the value listed in Table 3 is the calculated mean.)

Mu opioid receptor = Mu opioid receptor (Rattus norvegicus, UniProt P33535); test: Rat brain mu opioid receptor binding ([3H]DAMGO); settings: read-out: Mu Ki; rat forebrain membranes; mean where tested more than once

Structure (SMILES): O=C1N(CCn2cc(C3CC3)nn2)CN(c2ccc(F)cc2)C12CCN([C@H]1Cc3cccc4cccc1c34)CC2
- Ki [1]: 0.89 nM

Structure (SMILES): O=C1N(CCn2cc(C3CC3)nn2)CN(c2ccc(F)cc2)C12CCN([C@@H]1Cc3cccc4cccc1c34)CC2
- Ki [1]: 0.5 nM
- Ki (Mu opioid receptor): 4.63 nM

Structure (SMILES): COCc1cn(CCN2CN(c3ccc(F)cc3)C3(CCN([C@@H]4Cc5cccc6cccc4c56)CC3)C2=O)nn1
- Ki [1]: 0.05 nM
- Ki (Mu opioid receptor): 3.91 nM

Structure (SMILES): O=C1N(CCCn2cc(CO)nn2)CN(c2ccc(F)cc2)C12CCN([C@H]1Cc3cccc4cccc1c34)CC2
- Ki [1]: 0.59 nM
- Ki (Mu opioid receptor): 8.88 nM

Structure (SMILES): O=C1N(CCn2cc(CO)nn2)CN(c2ccc(F)cc2)C12CCN([C@@H]1Cc3cccc4cccc1c34)CC2
- Ki [1]: 0.33 nM
- Ki (Mu opioid receptor): 5.05 nM

Structure (SMILES): O=C1N(CCn2cc(CO)nn2)CN(c2ccc(F)cc2)C12CCN([C@H]1Cc3cccc4cccc1c34)CC2
- Ki [1]: 0.93 nM

Structure (SMILES): O=C1N(CCCn2cc(CO)nn2)CN(c2ccc(F)cc2)C12CCN([C@@H]1Cc3cccc4cccc1c34)CC2
- Ki [1]: > 1 nM

Structure (SMILES): COCc1cn(CCN2CN(c3ccc(F)cc3)C3(CCN([C@H]4Cc5cccc6cccc4c56)CC3)C2=O)nn1
- Ki [1]: 0.37 nM
- Ki (Mu opioid receptor): 17.9 nM
